Literature values in patent publication US7229999B2, “Pyridine-3-carboxamide derivatives as CB1 inverse agonists” (Hoffmann-La Roche Inc., priority 2005, dated 2007).

Chains of the proteins cited; added tags and fusions are not shown.
UniProt P47746, whole entry: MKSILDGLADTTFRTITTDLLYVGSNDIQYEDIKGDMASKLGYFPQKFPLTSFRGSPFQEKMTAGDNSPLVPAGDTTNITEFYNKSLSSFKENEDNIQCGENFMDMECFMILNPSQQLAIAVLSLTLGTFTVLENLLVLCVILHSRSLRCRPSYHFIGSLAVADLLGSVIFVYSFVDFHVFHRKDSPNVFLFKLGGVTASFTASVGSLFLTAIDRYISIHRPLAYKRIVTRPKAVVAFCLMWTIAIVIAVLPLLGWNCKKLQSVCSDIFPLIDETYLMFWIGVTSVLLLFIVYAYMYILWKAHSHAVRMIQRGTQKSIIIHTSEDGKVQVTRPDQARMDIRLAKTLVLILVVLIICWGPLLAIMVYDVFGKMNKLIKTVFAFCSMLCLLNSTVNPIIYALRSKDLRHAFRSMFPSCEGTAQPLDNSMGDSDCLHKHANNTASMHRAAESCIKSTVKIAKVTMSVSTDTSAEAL

Molecular target: CB1 receptor (Mus musculus, UniProt P47746)
Settings: wild-type versus CB1 receptor knockout mice; cited from earlier work

In the case of `Cc1c(C(=O)NN2CCCCC2)nn(-c2ccc(Cl)cc2Cl)c1-c1ccc(Cl)cc1` [SR 141716], the food intake is listed as “reduces food intake in wild-type but not knockout mice”.
